Here are results for seven compounds from PubChem BioAssay AID521 (Sanford-Burnham Center for Chemical Genomics, 2006).

Amino acid sequences for entries named in this document (tags omitted).
UniProt P35236, whole entry: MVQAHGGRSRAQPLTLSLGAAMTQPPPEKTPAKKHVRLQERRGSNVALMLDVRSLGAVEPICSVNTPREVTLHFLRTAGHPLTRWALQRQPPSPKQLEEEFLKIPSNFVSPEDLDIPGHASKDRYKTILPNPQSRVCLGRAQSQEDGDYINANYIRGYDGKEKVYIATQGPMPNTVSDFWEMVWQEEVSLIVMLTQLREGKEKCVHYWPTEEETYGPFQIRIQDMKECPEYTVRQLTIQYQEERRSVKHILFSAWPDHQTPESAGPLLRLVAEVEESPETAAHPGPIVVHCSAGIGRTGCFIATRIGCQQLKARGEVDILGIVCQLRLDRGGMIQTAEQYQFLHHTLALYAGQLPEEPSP

This is a selection; strong and weak results do not stand in their true shares. Activity calls are given as the source filed them. Rule as the data show it: active = inhibition above about 50%; inconclusive = no clear call, values can overlap the other calls; inactive = below that.

In general, inhibition refers to how much of the control response was suppressed.

This assay addresses Tyrosine-protein phosphatase non-receptor type 7 (Homo sapiens) (UniProt P35236). Nature of the assay: HePTP tyrosine phosphatase activity blockers – biochemical, absorbance, leukemia target, primary screen (AID 521).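 Also: plate controls were vehicle for no effect and reference inhibitor for full effect.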 The conditions noted are these: recombinant HePTP phosphatase activity, OD absorbance; at 20 µM; stronger effect = higher value.
Regarding `N/C(=N\O)c1c(N)no[n+]1[O-]`, the inhibition is inactive: 4.5%.

With `CCC(CO)(C(=O)OC1CN2CCC1CC2)c1ccccc1` (configuration not stated), the inhibition is inactive: 4.2%.

In the case of `CCOc1ncccc1C(=O)NCC1(N2CCOCC2)CCCCC1`, the inhibition was inactive: 6.4%.

In the case of `Fc1ccccc1NC1CCN(Cc2ccccc2)CC1`, the inhibition is inactive: 7%.

On to `COc1ccc(NC2CCN(CCc3ccccc3)CC2)c(OC)c1`, for which the inhibition is inactive: 9.8%.

With `O=C(OC1CN2CCC1CC2)C1c2ccccc2Oc2ccccc21` (configuration not stated), the inhibition is inactive: 11.2%.

For the compound `N#CC1(Nc2ccccc2)CCN(CCc2ccccc2)CC1`, the inhibition is inactive: 1.5%.
